Source: patent US20110224208A1, “NOVEL INHIBITORS OF FLAVIVIRUS REPLICATION” (KATHOLIEKE UNIVERSITEIT LEUVEN, K.U. LEUVEN R&D, priority 2008, published 2011)

Assay: Proliferation of exponentially growing Huh-5-2 cells (MTS method)
Settings: human, CC50, concentration required to inhibit the proliferation of exponentially growing Huh-5-2 cells by 50%; Table 2

Row | Compound | CC50 at 72 h [µg/mL]
1 | COCCN1C(=O)c2cc(N)ccc2C(C(=O)Nc2cccc(OC)c2)C1c1cccs1 (stereo not drawn) [C147, 7-amino-2-(2-methoxyethyl)-N-(3-methoxyphenyl)-1-oxo-3-(thiophen-2-yl)-1,2,3,4-tetrahydroisoquinoline-4-carboxamide] | 77.8 (≈ 172 µM)
2 | COCCN1C(=O)c2cc(Cl)ccc2C(C(=O)Nc2cccc(OC)c2)C1c1cccs1 (stereo not drawn) [C43, 7-Chloro-2-(2-methoxyethyl)-N-(3-methoxyphenyl)-1-oxo-3-(thiophen-2-yl)-1,2,3,4-tetrahydroisoquinoline-4-carboxamide] | 70.8 (≈ 150 µM)
3 | COCCN1C(=O)c2ccccc2C(C(=O)Nc2ccc(Cl)cn2)C1c1cccs1 (stereo not drawn) [C223, N-(5-chloropyridin-2-yl)-2-(2-methoxyethyl)-1-oxo-3-(thiophen-2-yl)-1,2,3,4-tetrahydroisoquinoline-4-carboxamide] | 79 (≈ 179 µM)
4 | COCCN1C(=O)c2cc([N+](=O)[O-])ccc2C(C(=O)Nc2cccc(OC)c2)C1c1cccs1 (stereo not drawn) [C3, 2-(2-methoxyethyl)-N-(3-methoxyphenyl)-7-nitro-1-oxo-3-(thiophen-2-yl)-1,2,3,4-tetrahydroisoquinoline-4-carboxamide] | 65.1 (≈ 135 µM)
5 | COCCN1C(=O)c2ccccc2C(C(=O)Nc2cc(C(C)(C)C)on2)C1c1cccs1 (stereo not drawn) [C142, N-(5-tert-butylisoxazol-3-yl)-2-(2-methoxyethyl)-1-oxo-3-(thiophen-2-yl)-1,2,3,4-tetrahydroisoquinoline-4-carboxamide] | 8.95 (≈ 19.7 µM)
6 | COCCN1C(=O)c2ccccc2C(C(=O)Nc2cccc(OC)c2)C1c1ccccc1 (stereo not drawn) [C28, 2-(2-Methoxyethyl)-N-(3-methoxyphenyl)-1-oxo-3-phenyl-1,2,3,4-tetrahydroisoquinoline-4-carboxamide] | 74.9 (≈ 174 µM)
7 | COCCN1C(=O)c2ccccc2C(C(=O)Nc2ccc(Cl)c(Cl)c2)C1c1cccs1 (stereo not drawn) [C87, N-(3,4-dichlorophenyl)-2-(2-methoxyethyl)-1-oxo-3-(thiophen-2-yl)-1,2,3,4-tetrahydroisoquinoline-4-carboxamide] | 4.34 (≈ 9.13 µM)
8 | COCCN1C(=O)c2ccccc2C(C(=O)Nc2cccc(F)c2)C1c1cccs1 (stereo not drawn) [C47, N-(3-fluorophenyl)-2-(2-methoxyethyl)-1-oxo-3-(thiophen-2-yl)-1,2,3,4-tetrahydroisoquinoline-4-carboxamide] | 98.4 (≈ 232 µM)
9 | COCCN1C(=O)c2ccccc2C(C(=O)Nc2ccc(NC(C)=O)cc2)C1c1cccs1 (stereo not drawn) [C129, N-(4-acetamidophenyl)-2-(2-methoxyethyl)-1-oxo-3-(thiophen-2-yl)-1,2,3,4-tetrahydroisoquinoline-4-carboxamide] | 97 (≈ 209 µM)
10 | COCCN1C(=O)c2ccccc2C(C(=O)Nc2ccc(C(C)C)cc2)C1c1cccs1 (stereo not drawn) [C165, N-(4-isopropylphenyl)-2-(2-methoxyethyl)-1-oxo-3-(thiophen-2-yl)-1,2,3,4-tetrahydroisoquinoline-4-carboxamide] | 33.1 (≈ 73.8 µM)
11 | COCCN1C(=O)c2ccc(C)cc2C(C(=O)Nc2cccc(OC)c2)C1c1cccs1 (stereo not drawn) [C40, 2-(2-Methoxyethyl)-N-(3-methoxyphenyl)-6-methyl-1-oxo-3-(thiophen-2-yl)-1,2,3,4-tetrahydroisoquinoline-4-carboxamide] | 88.1 (≈ 195 µM)
12 | COCCN1C(=O)c2ccccc2C(C(=O)Nc2ccc(-c3csc(C)n3)cc2)C1c1cccs1 (stereo not drawn) [C157, 2-(2-methoxyethyl)-N-(4-(2-methylthiazol-4-yl)phenyl)-1-oxo-3-(thiophen-2-yl)-1,2,3,4-tetrahydroisoquinoline-4-carboxamide] | 71.3 (≈ 142 µM)
13 | COCCN1C(=O)c2cc(C(F)(F)F)ccc2C(C(=O)Nc2cccc(OC)c2)C1c1cccs1 (stereo not drawn) [C92, 2-(2-methoxyethyl)-N-(3-methoxyphenyl)-1-oxo-3-(thiophen-2-yl)-7-(trifluoromethyl)-1,2,3,4-tetrahydroisoquinoline-4-carboxamide] | 68.9 (≈ 137 µM)
14 | COCCN1C(=O)c2cccc(F)c2C(C(=O)Nc2cccc(OC)c2)C1c1cccs1 (stereo not drawn) [C61, 5-Fluoro-2-(2-methoxyethyl)-N-(3-methoxyphenyl)-1-oxo-3-(thiophen-2-yl)-1,2,3,4-tetrahydroisoquinoline-4-carboxamide] | 62.6 (≈ 138 µM)
15 | COCCN1C(=O)c2ccccc2C(C(=O)Nc2ccc3c(c2)CCN3C)C1c1cccs1 (stereo not drawn) [C176, 2-(2-methoxyethyl)-N-(1-methylindolin-5-yl)-1-oxo-3-(thiophen-2-yl)-1,2,3,4-tetrahydroisoquinoline-4-carboxamide] | 71.7 (≈ 155 µM)
16 | COCCN1C(=O)c2ccccc2C(C(=O)Nc2cc(C3CC3)nn2C)C1c1cccs1 (stereo not drawn) [C197, N-(3-cyclopropyl-1-methyl-1H-pyrazol-5-yl)-2-(2-methoxyethyl)-1-oxo-3-(thiophen-2-yl)-1,2,3,4-tetrahydroisoquinoline-4-carboxamide] | 78.2 (≈ 174 µM)
17 | COCCN1C(=O)c2ccccc2C(C(=O)Nc2cccc(-n3cccc3)c2)C1c1cccs1 (stereo not drawn) [C115, N-(3-(1H-pyrrol-1-yl)phenyl)-2-(2-methoxyethyl)-1-oxo-3-(thiophen-2-yl)-1,2,3,4-tetrahydroisoquinoline-4-carboxamide] | 76.6 (≈ 162 µM)
18 | COCCN1C(=O)c2ccccc2C(C(=O)Nc2ccc(-c3ncccn3)cc2)C1c1cccs1 (stereo not drawn) [C175, 2-(2-methoxyethyl)-1-oxo-N-(4-(pyrimidin-2-yl)phenyl)-3-(thiophen-2-yl)-1,2,3,4-tetrahydroisoquinoline-4-carboxamide] | 10.4 (≈ 21.5 µM)
19 | COCCN1C(=O)c2ccccc2C(C(=O)Nc2cccc(-c3cnco3)c2)C1c1cccs1 (stereo not drawn) [C210, 2-(2-methoxyethyl)-N-(3-(oxazol-5-yl)phenyl)-1-oxo-3-(thiophen-2-yl)-1,2,3,4-tetrahydroisoquinoline-4-carboxamide] | 15.7 (≈ 33.2 µM)
20 | COCCN1C(=O)c2c(F)cccc2C(C(=O)Nc2cccc(OC)c2)C1c1cccs1 (stereo not drawn) [C51, 8-Fluoro-2-(2-methoxyethyl)-N-(3-methoxyphenyl)-1-oxo-3-(thiophen-2-yl)-1,2,3,4-tetrahydroisoquinoline-4-carboxamide] | 63.1 (≈ 139 µM)
21 | COCCN1C(=O)c2ccccc2C(C(=O)Nc2cc(-c3ccccc3)[nH]n2)C1c1cccs1 (stereo not drawn) [C182, 2-(2-methoxyethyl)-1-oxo-N-(5-phenyl-1H-pyrazol-3-yl)-3-(thiophen-2-yl)-1,2,3,4-tetrahydroisoquinoline-4-carboxamide] | 36.2 (≈ 76.6 µM)
22 | COCCN1C(=O)c2ccccc2C(COCc2ccccc2)C1c1cccs1 (stereo not drawn) [C76, 4-(benzyloxymethyl)-2-(2-methoxyethyl)-3-(thiophen-2-yl)-3,4-dihydroisoquinolin-1(2H)-one] | 42.2 (≈ 104 µM)
23 | COCCN1C(=O)c2c(F)ccc(F)c2C(C(=O)Nc2cccc(OC)c2)C1c1cccs1 (stereo not drawn) [C91, 5,8-difluoro-2-(2-methoxyethyl)-N-(3-methoxyphenyl)-1-oxo-3-(thiophen-2-yl)-1,2,3,4-tetrahydroisoquinoline-4-carboxamide] | 45.1 (≈ 95.4 µM)
24 | COCCN1C(=O)c2ccccc2C(C(=O)Nc2cc(C)nn2C)C1c1cccs1 (stereo not drawn) [C109, N-(1,3-dimethyl-1H-pyrazol-5-yl)-2-(2-methoxyethyl)-1-oxo-3-(thiophen-2-yl)-1,2,3,4-tetrahydroisoquinoline-4-carboxamide] | 83.5 (≈ 197 µM)
25 | COCCN1C(=O)c2ccccc2C(C(=O)Nc2ccccc2-c2ccccc2)C1c1cccs1 (stereo not drawn) [C84, N-(biphenyl-2-yl)-2-(2-methoxyethyl)-1-oxo-3-(thiophen-2-yl)-1,2,3,4-tetrahydroisoquinoline-4-carboxamide] | 50 (≈ 104 µM)

Same assay, conditions: human, CC50, concentration required to inhibit the proliferation of exponentially growing Huh-5-2 cells by 50%; Table 4

Row | Compound | CC50 at 72 h [µg/mL]
26 | COCCN1C(=O)c2ccccc2C(C(=O)Nc2cc(C(C)(C)C)on2)C1c1cccs1 (stereo not drawn) [C142, N-(5-tert-butylisoxazol-3-yl)-2-(2-methoxyethyl)-1-oxo-3-(thiophen-2-yl)-1,2,3,4-tetrahydroisoquinoline-4-carboxamide] | > 30
27 | COCCN1C(=O)c2ccccc2C(C(=O)Nc2cccc(F)c2)C1c1cccs1 (stereo not drawn) [C47, N-(3-fluorophenyl)-2-(2-methoxyethyl)-1-oxo-3-(thiophen-2-yl)-1,2,3,4-tetrahydroisoquinoline-4-carboxamide] | > 50
28 | COCCN1C(=O)c2ccccc2C(C(=O)Nc2ccc(-c3csc(C)n3)cc2)C1c1cccs1 (stereo not drawn) [C157, 2-(2-methoxyethyl)-N-(4-(2-methylthiazol-4-yl)phenyl)-1-oxo-3-(thiophen-2-yl)-1,2,3,4-tetrahydroisoquinoline-4-carboxamide] | > 50
29 | COCCN1C(=O)c2ccccc2C(C(=O)Nc2ccc(-c3ncccn3)cc2)C1c1cccs1 (stereo not drawn) [C175, 2-(2-methoxyethyl)-1-oxo-N-(4-(pyrimidin-2-yl)phenyl)-3-(thiophen-2-yl)-1,2,3,4-tetrahydroisoquinoline-4-carboxamide] | > 50
30 | COCCN1C(=O)c2c(F)cccc2C(C(=O)Nc2cccc(OC)c2)C1c1cccs1 (stereo not drawn) [C51, 8-Fluoro-2-(2-methoxyethyl)-N-(3-methoxyphenyl)-1-oxo-3-(thiophen-2-yl)-1,2,3,4-tetrahydroisoquinoline-4-carboxamide] | > 50

Values after ≈ are worked out from the molar mass of the structure shown.
